In PubChem BioAssay AID624111 (Johns Hopkins Ion Channel Center, 2012):
The entries are a selection whose mix differs from that of the whole data set. Calls of active or inactive are those of the source.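 The calls were made as follows: active = duplicate-averaged calcium fluorescence ratio at least three times the standard deviation of buffer wells, a nonspecific response in parental cells; inactive = the rest.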

Test: calcium flux effects in cells lacking MrgX1 – parental HEK293 cells, Fluo-4 calcium flux, counter-screen for MrgX1 antagonist project, confirmation (AID 624111)
Settings: parental HEK293, Fluo-4 calcium fluorescence, FDSS; at 10 µM

SMILES | fluorescence ratio F(max-min)/F0
CN(C)C1(CNC(=O)c2ccc(Cl)c(S(N)(=O)=O)c2)CCCCC1 | inactive: 0
